In ChEMBL document CHEMBL1157138, “A binary QSAR model for classification of hERG potassium channel blockers” (Bioorg Med Chem, 2008):
pIC50: −log10 of the molar value.

By UniProt entry, the sequences of proteins in these tests, tags left out. Where a name states a change or a piece, a line headed by the entry shows the natural chain unless it says otherwise.
UniProt Q12809: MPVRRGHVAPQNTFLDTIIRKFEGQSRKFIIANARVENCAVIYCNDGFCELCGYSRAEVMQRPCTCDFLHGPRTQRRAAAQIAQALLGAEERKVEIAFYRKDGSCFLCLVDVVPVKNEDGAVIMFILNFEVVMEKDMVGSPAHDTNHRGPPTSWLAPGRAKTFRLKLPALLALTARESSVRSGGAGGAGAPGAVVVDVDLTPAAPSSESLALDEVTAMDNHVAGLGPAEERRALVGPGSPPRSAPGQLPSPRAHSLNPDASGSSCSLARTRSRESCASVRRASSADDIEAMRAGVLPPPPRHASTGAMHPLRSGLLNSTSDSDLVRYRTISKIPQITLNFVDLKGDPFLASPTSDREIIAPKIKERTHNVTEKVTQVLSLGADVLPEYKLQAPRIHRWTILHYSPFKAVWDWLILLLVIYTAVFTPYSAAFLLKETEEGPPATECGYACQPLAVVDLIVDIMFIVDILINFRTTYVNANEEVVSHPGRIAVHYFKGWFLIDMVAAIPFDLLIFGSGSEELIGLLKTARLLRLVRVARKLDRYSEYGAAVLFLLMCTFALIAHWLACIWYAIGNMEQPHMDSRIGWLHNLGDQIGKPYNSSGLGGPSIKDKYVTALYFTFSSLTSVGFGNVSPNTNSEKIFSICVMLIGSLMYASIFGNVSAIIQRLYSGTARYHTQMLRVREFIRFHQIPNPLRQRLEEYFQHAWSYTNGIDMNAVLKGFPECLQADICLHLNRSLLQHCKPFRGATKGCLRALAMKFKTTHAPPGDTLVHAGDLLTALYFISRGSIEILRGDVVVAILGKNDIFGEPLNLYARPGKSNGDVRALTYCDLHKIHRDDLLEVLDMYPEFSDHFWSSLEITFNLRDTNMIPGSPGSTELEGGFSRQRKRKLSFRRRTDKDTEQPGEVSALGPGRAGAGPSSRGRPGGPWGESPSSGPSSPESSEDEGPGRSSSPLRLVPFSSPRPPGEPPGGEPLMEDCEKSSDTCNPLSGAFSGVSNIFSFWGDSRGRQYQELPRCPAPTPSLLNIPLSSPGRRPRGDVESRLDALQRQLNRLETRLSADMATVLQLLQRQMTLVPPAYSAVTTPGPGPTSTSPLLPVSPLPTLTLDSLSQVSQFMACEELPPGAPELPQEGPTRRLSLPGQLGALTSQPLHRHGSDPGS

Molecular target: Voltage-gated inwardly rectifying potassium channel KCNH2 (Homo sapiens, UniProt Q12809)
Assay: Inhibition of human ERG potassium channel

## Cc1nccn1C[C@H]1CCc2c(c3ccccc3n2C)C1=O [(R)-ONDANSETRON]
  pIC50: 6.09
